Data on one compound can be found in patent US8304394B2, “Low side effect pharmaceutical composition containing isoniazid” (priority 2008, dated 2012).

Sequences of proteins named here, by UniProt entry; tags and fusion partners are left off. A change or cut given only in a name is not applied to a line headed by its entry.
UniProt P05181: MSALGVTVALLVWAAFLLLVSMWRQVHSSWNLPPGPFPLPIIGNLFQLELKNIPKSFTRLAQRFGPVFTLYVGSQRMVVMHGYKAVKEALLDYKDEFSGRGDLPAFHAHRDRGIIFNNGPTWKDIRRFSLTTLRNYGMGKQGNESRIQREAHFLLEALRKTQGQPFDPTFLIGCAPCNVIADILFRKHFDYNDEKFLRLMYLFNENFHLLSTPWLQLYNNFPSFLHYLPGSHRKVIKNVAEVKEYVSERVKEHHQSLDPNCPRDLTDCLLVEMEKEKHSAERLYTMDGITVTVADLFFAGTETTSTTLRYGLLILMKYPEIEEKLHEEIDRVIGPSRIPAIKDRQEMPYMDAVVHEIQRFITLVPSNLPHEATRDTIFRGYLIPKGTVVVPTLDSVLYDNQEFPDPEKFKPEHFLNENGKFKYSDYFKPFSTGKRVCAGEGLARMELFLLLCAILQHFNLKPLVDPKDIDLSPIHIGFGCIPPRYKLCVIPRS

The target of this data set is human liver microsomal cytochrome P450 2E1 (CYP2E1) (Homo sapiens, UniProt P05181). Briefly: Chlorzoxazone hydroxylation inhibition (6-OH-CZX by LC/MS/MS). The note with it: tested concentration 66 μM.

As to `Oc1cc(O)c2c(c1)O[C@@H](c1ccc(O)c(O)c1)[C@@H](O)C2` [(+)-Epicatechin], the “Inhibition of CYP 2E1 (%)” value was 44.32 ± 1.25%.
